Series [1] deals with T1, BacAef (Enterococcus faecalis, UniProt A0ACD6TE02). The experiment in a line: ITC, BacAef. The conditions noted are these: 20 °C. It counts as binding. (In ITC the heat of successive injections is recorded.)
For series [2], the target named is T1, BacAef. The experiment in a line: DSS crosslinking. The conditions noted are these: BacAef and peptide 17 μM each, DSS 100- or 1000-fold excess, 30 min, 4 °C. The class given is binding. The method, then: Crosslinking experiments were performed using the amine-reactive, membrane-permeable, and non-cleavable crosslinker disuccinimidyl suberate (DSS) purchased from Sigma. EntC peptides and BacA protein were mixed at equimolar concentrations (17 μM) in buffer D in the presence of an excess of DSS crosslinker (1000-fold or 100-fold) in a final reaction volume of 20 μl. The reaction was incubated for 30 min at 4°C, and any unreacted DSS was quenched with 50 mM Tris-HCl. After separation on a 12% acrylamide gel, proteins were electrotransferred onto polyvinylidene difluoride (PVDF) membrane, and BacA was detected using peroxidase-coupled anti-His tag antibody (Penta-His HRP conjugate from Qiagen, RRID: AB_3699318) by chemiluminescence detection (Western Lightning Plus-ECL, PerkinElmer) using the ChemiDoc MP system (Bio-Rad).

A further series has as its target BacAef/EntC2 (Enterococcus faecalis, UniProt A0ACD6TE02). It counts as binding. The conditions noted are these: ITC, 20 °C. Here is the method: The experiments were carried out at 20 °C.
A further series has as its system PgpB. The conditions noted are these: Fluo-EntC1 100 nM, PgpB micelles, 0.1% DDM.
The target in series [3] is T1, BacAef. The series can be described thus: Flow-Induced Dispersion Analysis (FIDA), BacAef. The class given is binding. Particulars: Fluo-EntC1 100 nM, BacAef micelles 2 μM, 0.1% DDM, pH 7.4, 25 °C; average of three experiments.
Series [4] relates to E. faecalis (V583-derivative strain, WT). The class given is cell-based, Enterococcus faecalis. The conditions noted are these: 6 μl droplets on a lawn of E. faecalis, BHI 0.75% agar, overnight; representative of three independent experiments.
The target in series [5] is T1, BacAef. The class given is binding. Particulars: DSC, BacAef 33 μM + peptides 66 μM, 60 °C/h, representative of triplicate. The method, then: Thermal stability of BacA protein in different mixtures of peptides was performed by DSC on a MicroCal model VP-DSC (Malvern Panalytical, Malvern, UK). BacA (33 μM) was mixed with different mixtures of peptides at twice the BacA concentration (i.e. 66 μM). Each measurement was preceded by a baseline scan with the standard buffer. Scans were performed at 1 K/min (60 °C/h) temperature ramp between 30 °C and 100 °C. The heat capacity of the buffer was subtracted from that of the protein sample before analysis. The thermodynamic parameters were determined by fitting the data to the following equation: ΔCp(T)=Kd(T)ΔHcalΔHvH/[1+Kd(T)]^2RT^2 where Kd is the equilibrium constant for a two-state process, ΔHvH the enthalpy calculated based on a two-state process and ΔHcal the measured enthalpy.

Another series has as its target BacAec (Escherichia coli, UniProt P60932). The series can be described thus: FIDA, BacAec. The class given is binding. The conditions noted are these: Fluo-EntC1 100 nM, BacAec micelles, 0.1% DDM.

The structures appear in SMILES notation.

Turning to `CC[C@H](C)[C@H](NC(=O)[C@H](CCCCN)NC(=O)[C@H](CO)NC(=O)[C@H](Cc1ccccc1)NC(=O)[C@@H](NC(=O)[C@H](CO)NC(=O)[C@@H](N)CCC(=O)O)C(C)C)C(=O)NCC(=O)N[C@@H](CC(N)=O)C(=O)N[C@@H](C)C(=O)N[C@H](C(=O)NCC(=O)N1CCC[C@H]1C(=O)N[C@@H](C)C(=O)N[C@@H](C)C(=O)N[C@@H](Cc1ccc(O)cc1)C(=O)N[C@@H](Cc1c[nH]c2ccccc12)C(=O)N[C@H](C(=O)N[C@@H](CC(C)C)C(=O)N[C@@H](CCCCN)C(=O)NCC(=O)N[C@@H](CC(C)C)C(=O)NCC(=O)N[C@@H](CC(N)=O)C(=O)N[C@@H](CCSC)C(=O)N[C@@H](CO)C(=O)N[C@@H](CC(=O)O)C(=O)N[C@H](C(=O)N[C@@H](CC(N)=O)C(=O)N[C@@H](CCC(N)=O)C(=O)N[C@@H](C)C(=O)N[C@@H](CC(=O)O)C(=O)N[C@@H](CCCNC(=N)N)C(=O)N[C@H](C(=O)N[C@@H](CC(N)=O)C(=O)N[C@@H](CCCNC(=N)N)C(=O)N[C@@H](CCCCN)C(=O)N[C@@H](CCCCN)C(=O)N[C@@H](Cc1c[nH]cn1)C(=O)O)[C@@H](C)CC)C(C)C)[C@@H](C)CC)C(C)C` (single isomer, unassigned) [EntC1], the “-TΔS” value at BacAef [1] (into [BacAef] 33 μM) is -3.4 kcal/mol; at BacAef/EntC2 (into [BacAef/EntC2]), 19.2 kcal/mol. Moreover, the values for the ΔG at BacAef [1] (into [BacAef] 33 μM) and at BacAef/EntC2 (into [BacAef/EntC2]) were -9 kcal/mol and -8.48 kcal/mol, respectively. The ΔH at BacAef [1] (into [BacAef] 33 μM) was -5.4 kcal/mol; at BacAef/EntC2 (into [BacAef/EntC2]), -27.6 kcal/mol. In addition, the n on BacAef [1] (peptides 400 μM into [BacAef] 33 μM, pH 7.4, 0.1% DDM, at least triplicate) came out at 0.60 ± 0.02; at BacAef/EntC2 (400 μM into [BacAef/EntC2] 33 μM), 0.69 ± 0.01. For the same molecule, at BacAef [2], the “crosslinked complex band with BacAef (SDS-PAGE, western blot)” value was “a strong and unique band”. In addition, the “hydrodynamic radius (Rh) with PgpB” value in the series on PgpB was “no significant change”. Moreover, the “hydrodynamic radius (Rh) with BacAef” value on BacAef [3] is 3.8 nm. The “antibacterial activity (spot-on-lawn), E. faecalis” value in series [4] is listed as “neither peptide exhibited antibacterial activity when applied individually”. The “melting temperature (Tm) of BacAef” value at BacAef [5] (30-100 °C, Tris-HCl pH 7.5, 0.1% DDM, BacAef alone 66.3 °C) is 72.8 °C. Also, the “enthalpy of denaturation (ΔH) of BacAef” value at BacAef [5] (BacAef alone 26.7 kcal/mol) is listed as 45.3 kcal/mol. The “hydrodynamic radius (Rh) with BacAec” value on BacAec is recorded as “no significant change”.
